Measured values: BindingDB's records for doi:10.1002/(SICI)1098-2396(200002)35:2<79::AID-SYN1>3.0.CO;2-X (Institut De Recherches Servier, 2000)

By UniProt entry, the sequences of proteins in these tests, tags left out. Where a name states a change or a piece, a line headed by the entry shows the natural chain unless it says otherwise.
UniProt P28221: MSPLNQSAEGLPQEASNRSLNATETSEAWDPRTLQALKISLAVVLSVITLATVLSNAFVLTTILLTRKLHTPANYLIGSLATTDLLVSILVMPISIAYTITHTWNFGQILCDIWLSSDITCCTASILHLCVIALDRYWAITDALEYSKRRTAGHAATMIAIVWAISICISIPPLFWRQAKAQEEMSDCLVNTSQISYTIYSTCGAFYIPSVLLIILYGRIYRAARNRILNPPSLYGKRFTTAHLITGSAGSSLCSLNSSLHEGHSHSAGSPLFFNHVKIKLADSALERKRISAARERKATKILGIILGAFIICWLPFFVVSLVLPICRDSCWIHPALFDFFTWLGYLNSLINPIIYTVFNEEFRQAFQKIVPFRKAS
UniProt P28222, whole entry: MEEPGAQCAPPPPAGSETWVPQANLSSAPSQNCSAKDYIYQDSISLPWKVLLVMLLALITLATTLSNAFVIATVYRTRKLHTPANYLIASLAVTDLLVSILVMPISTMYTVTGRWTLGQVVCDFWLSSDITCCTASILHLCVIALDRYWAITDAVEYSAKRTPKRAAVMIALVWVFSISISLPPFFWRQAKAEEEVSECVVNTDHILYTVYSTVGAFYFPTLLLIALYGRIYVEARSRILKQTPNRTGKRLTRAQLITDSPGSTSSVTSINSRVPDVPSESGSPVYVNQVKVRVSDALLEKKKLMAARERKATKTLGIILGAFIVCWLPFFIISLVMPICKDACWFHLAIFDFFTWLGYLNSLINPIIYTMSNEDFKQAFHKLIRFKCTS

What was measured:
[1] = molecular target: 5-hydroxytryptamine receptor 1D (Homo sapiens, UniProt P28221)
[2] = molecular target: 5-hydroxytryptamine receptor 1B (Homo sapiens, UniProt P28222)
[3] = molecular target: T1, Alpha-1A adrenergic receptor (Rattus norvegicus, UniProt P43140)
T1 sequence (P43140 whole entry): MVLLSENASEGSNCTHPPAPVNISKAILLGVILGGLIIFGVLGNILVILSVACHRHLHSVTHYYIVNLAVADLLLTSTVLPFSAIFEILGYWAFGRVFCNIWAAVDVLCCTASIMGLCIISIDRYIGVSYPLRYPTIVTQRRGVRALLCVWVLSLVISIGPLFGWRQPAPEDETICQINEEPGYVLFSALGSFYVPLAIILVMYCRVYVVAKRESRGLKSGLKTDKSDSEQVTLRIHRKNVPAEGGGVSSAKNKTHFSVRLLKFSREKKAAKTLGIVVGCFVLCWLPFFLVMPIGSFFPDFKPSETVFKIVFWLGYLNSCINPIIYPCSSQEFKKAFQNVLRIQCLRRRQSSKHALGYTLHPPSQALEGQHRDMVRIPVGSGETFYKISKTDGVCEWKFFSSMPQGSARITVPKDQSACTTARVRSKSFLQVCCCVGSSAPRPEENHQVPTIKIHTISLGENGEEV

SMILES | Ki [1] [nM] | Ki [2] [nM] | Ki [3] [nM]
Fc1cccc2c1OC1CNCC1O2 (stereo not drawn) [CAS_105182-45-4] | 1000 | 1000 | 
COC(=O)[C@@H]1[C@H]2C[C@H]3c4[nH]c5ccccc5c4CCN3C[C@@H]2CC[C@@H]1O [yohimbic acid methyl ester] |  |  | 251
